The values that follow come from ChEMBL document CHEMBL2385058, “Progress and developments in tau aggregation inhibitors for Alzheimer disease” (J Med Chem, 2013).

Protein sequences, listed by entry. Tags and fused reporters are not part of them.
UniProt P05067, whole entry: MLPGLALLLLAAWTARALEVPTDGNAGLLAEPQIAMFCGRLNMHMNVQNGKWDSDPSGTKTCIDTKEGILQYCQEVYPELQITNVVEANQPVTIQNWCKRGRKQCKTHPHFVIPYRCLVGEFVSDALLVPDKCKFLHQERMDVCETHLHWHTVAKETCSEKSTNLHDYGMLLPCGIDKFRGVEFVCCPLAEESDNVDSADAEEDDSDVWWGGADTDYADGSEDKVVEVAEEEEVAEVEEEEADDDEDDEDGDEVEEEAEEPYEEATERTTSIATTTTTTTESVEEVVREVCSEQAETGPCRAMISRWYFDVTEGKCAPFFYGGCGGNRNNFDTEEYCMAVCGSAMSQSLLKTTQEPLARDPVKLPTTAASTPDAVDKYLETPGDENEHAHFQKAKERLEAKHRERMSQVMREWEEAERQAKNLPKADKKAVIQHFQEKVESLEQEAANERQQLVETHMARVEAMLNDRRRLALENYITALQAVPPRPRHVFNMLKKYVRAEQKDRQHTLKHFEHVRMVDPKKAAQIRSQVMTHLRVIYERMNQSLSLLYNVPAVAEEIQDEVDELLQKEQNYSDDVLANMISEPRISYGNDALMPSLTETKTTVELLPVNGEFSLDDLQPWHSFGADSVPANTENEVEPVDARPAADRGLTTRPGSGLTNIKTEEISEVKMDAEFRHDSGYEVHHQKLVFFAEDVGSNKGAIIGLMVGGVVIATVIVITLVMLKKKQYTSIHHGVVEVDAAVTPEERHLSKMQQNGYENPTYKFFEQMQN

Molecules are shown by their SMILES.

The target in the test is Amyloid-beta precursor protein (Homo sapiens, UniProt P05067). Kind of test: Binding affinity to amyloid beta (1 to 40) (unknown origin).

For orientation: Ki means a measure of affinity in units of concentration, obtained from inhibition or displacement. Turning to `Cc1ccc2c(c1)sc(-c1ccc(N(C)C)cc1)[n+]2C` [THIOFLAVIN T], the affinity corresponds to a Ki of 890 nM.
